From PubChem BioAssay AID1217 (Sanford-Burnham Center for Chemical Genomics, 2008) come the findings set out here.

This is a selection; strong and weak results do not stand in their true shares. The source made the active and inactive calls.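 Rule for the calls: active = primary screen inhibition at 20 µM above a set limit (cut at about 50% in these data); inactive = the rest.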

The test system of this assay is diaphorase (Clostridium kluyveri). The assay is described as follows: diaphorase inhibitors and chemical oxidizers, primary screen, counter-screen for diaphorase-coupled primary assays, biochemical, uHTS, resorufin fluorescence (AID 1217).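 Note: plate controls were DMSO with full reaction for no effect and wells lacking NADH for full effect.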 As to conditions: diaphorase resazurin-to-resorufin fluorescence, NADH, 16 min; at 20 µM; hits give high values; bacterial (C. kluyveri) enzyme, not human.
As usually defined, the inhibition is the change of the read-out against control, counted positive when it falls. Turning to `Cc1ccccc1NP(C)(=O)Nc1ccccc1C`, the inhibition was inactive: -3.1%.
As for `CP(=O)(Nc1ccc2c(c1)OCCO2)Oc1ccccc1` (centres undefined), the inhibition was inactive: 11%.
Under `CCOP(C)(=S)SCC(=O)NC(C)(CC)C(=O)O` (centres undefined) stands inactive: 9.8%; under `O=[N+]([O-])c1cc([N+](=O)[O-])c(NCC2CCS(=O)(=O)C2)c([N+](=O)[O-])c1` (centres undefined), inactive: 18.9%; under `COc1ccc(NP(C)(=O)Oc2ccccc2OC)cc1` (centres undefined), inactive: 3.7%.
Under `CN(C)CCOC(=O)C(O)(c1ccccc1)C1CCCCC1` (centres undefined) stands inactive: 3.7%; under `COc1ccc(OP(C)(=O)Nc2cccc(Br)c2)cc1` (centres undefined), inactive: 9.3%.
Under `CP(=O)(Nc1ccccc1)Oc1ccc(F)cc1` (centres undefined) stands inactive: -1.8%.
`CCN(CC)CCCOC(=O)C(O)(c1ccccc1)C1CCCCC1` (centres undefined): the inhibition was inactive: 2.5%.
Take `COc1ccc(OP(C)(=O)Nc2ccc(SC(F)(F)F)cc2)cc1` (centres undefined): the inhibition is inactive: 0%.
For the molecule `CCOC(=O)c1ccc(NP(C)(=O)Oc2ccc(F)cc2)cc1` (centres undefined), the inhibition was inactive: 4.9%.
Consider `O=C(OCCN1CCN(CCOCc2ccccc2)CC1)C(O)(c1ccccc1)c1ccccc1`, for which the inhibition was inactive: 10.9%.
Under `CC(C)c1ccc(OP(C)(=O)Nc2ccc(SC(F)(F)F)cc2)cc1` (centres undefined) stands inactive: 30.8%; under `CP(=O)(Nc1ccccc1F)Oc1ccccc1` (centres undefined), inactive: 3.3%; under `CCc1ccc(OP(C)(=O)O)cc1`, inactive: 3.7%.
Under `COc1ccccc1OP(C)(=O)Nc1ccc(C)cc1C` (centres undefined) stands inactive: 6.3%; under `CP(=O)(Nc1ccccn1)Oc1ccccc1` (centres undefined), inactive: 11.3%.
As for `Cc1c(NP(C)(=O)Oc2ccc(C(C)C)cc2)c(=O)n(-c2ccccc2)n1C` (centres undefined), the inhibition was inactive: -12.9%.
The same measure for `O=[N+]([O-])c1cc([N+](=O)[O-])c(Nc2ccccn2)c([N+](=O)[O-])c1`: inactive: 11.3%.
As to `CN(C)CCOC(=O)C(O)(c1ccccc1)C1CCCC1` (centres undefined), the inhibition is inactive: 4.2%.
Under `CP(=O)(Nc1ccc(Cl)cc1Cl)Oc1ccccc1` (centres undefined) stands inactive: 9.5%; under `CP(=O)(OCCOc1ccccc1)OCCOc1ccccc1`, inactive: 1.5%.
Regarding `Cc1nc2ccc3ccccc3c2o1.O=[N+]([O-])c1cc([N+](=O)[O-])c(O)c([N+](=O)[O-])c1`, the inhibition was inactive: 47.6%.
The same measure for `COc1ccc(OP(C)(=O)Nc2ccccc2Br)cc1` (centres undefined): inactive: 8.4%; for `COc1ccccc1OP(C)(=O)Nc1ccc(C)c(C)c1` (centres undefined): inactive: 7.2%; for `Cc1cc(C)cc(OP(C)(=O)Nc2cccc(C(F)(F)F)c2)c1` (centres undefined): inactive: 22.6%.
As to `CP(=O)(OC12CC3CC(CC(C3)C1)C2)OC12CC3CC(CC(C3)C1)C2`, the inhibition is inactive: 15.2%.
Regarding `CCOC(=O)c1ccc(NP(C)(=O)Oc2ccc(Cl)cc2)cc1` (centres undefined), the inhibition was inactive: 4.7%.
On to `CN(C)C(=O)c1c([N+](=O)[O-])cc([N+](=O)[O-])cc1[N+](=O)[O-]`, for which the inhibition was inactive: 13.4%.
For `CP(=O)(Nc1ccc(Cl)cc1)Oc1ccc(F)cc1` (centres undefined), the inhibition is inactive: 11.3%.
`COc1ccccc1OP(C)(=O)Nc1ccccc1Br` (centres undefined): the inhibition is inactive: 10.2%.
`CC(C)(C)c1ccc(OP(C)(=O)O)cc1`: the inhibition is inactive: 8.5%.
As to `CCc1ccc(OP(C)(=O)Nc2cccnc2)cc1` (centres undefined), the inhibition is inactive: 8.9%.
Under `CP(=O)(Oc1ccccc1)N1CCOC1=O` (centres undefined) stands inactive: 2.3%; under `COc1ccccc1OP(C)(=O)Nc1c(C)n(C)n(-c2ccccc2)c1=O` (centres undefined), inactive: 12.7%.
As to `COc1ccc(OP(C)(=O)Nc2ccc(Br)cc2)cc1` (centres undefined), the inhibition is inactive: 23.8%.
For the molecule `CCN(CC)CC(O)COC(=O)C(O)(c1ccccc1)C1CCCCC1` (centres undefined), the inhibition is inactive: 9.9%.
`CP(=O)(Nc1ccccn1)Oc1ccc(Cl)cc1` (centres undefined): the inhibition is inactive: -8.9%.
Consider `CCOP(C)(=S)SCC(=O)NC(C)C(=O)O` (centres undefined), for which the inhibition was inactive: 17.3%.
The same measure for `CCOC(=O)c1ccc(NP(C)(=O)Oc2ccc(OC)cc2)cc1` (centres undefined): inactive: 13.4%; for `Cc1cc(C)cc(OP(C)(=O)Nc2ccc(SC(F)(F)F)cc2)c1` (centres undefined): inactive: 28.1%; for `CP(=O)(NC(=O)Nc1ccccc1)Oc1ccccc1` (centres undefined): inactive: 10.2%.
Consider `CP(=O)(Oc1ccccc1)OC(c1ccccc1)C(F)(F)F` (centres undefined), for which the inhibition is inactive: 10.7%.
Under `Cc1cccc(C)c1OP(C)(=O)Nc1ccc(SC(F)(F)F)cc1` (centres undefined) stands inactive: 29%; under `COc1ccccc1OP(C)(=O)Nc1ccccc1` (centres undefined), inactive: 10.7%.
On to `CP(=O)(Nc1ccccc1Br)Oc1ccccc1` (centres undefined), for which the inhibition is inactive: 12.1%.
In the case of `CP(=S)(Nn1cnnc1)Oc1ccccc1` (centres undefined), the inhibition was inactive: 12.6%.
For the molecule `COc1ccc(OP(C)(=O)Nc2cccc(F)c2)cc1` (centres undefined), the inhibition was inactive: 3.5%.
The same measure for `COc1ccccc1OP(C)(=O)Nc1cc(Cl)ccc1C` (centres undefined): inactive: 11.6%; for `Cc1cc(C)cc(OP(C)(N)=O)c1` (centres undefined): inactive: 5.8%.
Under `CCOC(=O)c1ccc(NP(C)(=O)Oc2ccccc2)cc1` (centres undefined) stands inactive: 6%; under `Cc1ccc(NP(C)(=O)Oc2ccccc2)c(C)c1` (centres undefined), inactive: 1.3%; under `COc1ccccc1OP(C)(=O)Nc1ccc(C)cc1` (centres undefined), inactive: 19.7%.
With `Cc1cccc(C)c1OP(C)(N)=O` (centres undefined), the inhibition was inactive: -8.5%.
With `CC(C)(C)c1ccc(OP(C)(=O)Nc2ccc(SC(F)(F)F)cc2)cc1` (centres undefined), the inhibition is inactive: 26.4%.
`O=[N+]([O-])c1ccc2c(c1)C=Nc1ccccc1O2`: the inhibition is inactive: 7.1%.
Turning to `CCN(CC)CCCOC(=O)C(O)(c1ccccc1)c1ccccc1`, the inhibition is inactive: 6.8%.
Turning to `Cc1cc(C)cc(OP(C)(=O)Nc2ccccn2)c1` (centres undefined), the inhibition was inactive: 11%.
The same measure for `CP(=O)(Nc1cccc(Br)c1)Oc1ccccc1` (centres undefined): inactive: 15.3%; for `Cc1ccc(C)c(NP(C)(=O)Oc2ccccc2)c1` (centres undefined): inactive: -1.6%.
Under `Cc1cc(C)cc(OP(C)(=O)Nc2ccc(C)cc2C)c1` (centres undefined) stands inactive: 7.1%; under `CCOC(=O)c1ccc(NP(C)(=O)Oc2cc(C)cc(C)c2)cc1` (centres undefined), inactive: 0%.
On to `CC1=NCCc2c1[nH]c1ccccc21.O=[N+]([O-])c1cc([N+](=O)[O-])c(O)c([N+](=O)[O-])c1`, for which the inhibition was inactive: -7.4%.
The same measure for `CCCOc1ccc(NP(C)(=O)Oc2ccc(Cl)cc2)cc1` (centres undefined): inactive: 2.6%.
With `CP(=O)(Nc1ccc(SC(F)(F)F)cc1)Oc1ccccc1` (centres undefined), the inhibition is inactive: 2.7%.
As to `CN1CCCCC1COC(=O)C1(O)c2ccccc2CCc2ccccc21` (centres undefined), the inhibition is inactive: 10.1%.
Turning to `COc1ccccc1OP(C)(=O)Nc1c(C)cccc1C` (centres undefined), the inhibition was inactive: 8.2%.
For `Cc1nc2ccc3ccccc3c2s1.O=[N+]([O-])c1cc([N+](=O)[O-])c(O)c([N+](=O)[O-])c1`, the inhibition is inactive: 13.9%.
The same measure for `O=[N+]([O-])c1cc([N+](=O)[O-])c(-n2nnc3ccccc32)c([N+](=O)[O-])c1`: inactive: 6.4%.
